Measurements taken from PubChem BioAssay (Tox21).
The entries are a selection whose mix differs from that of the whole data set. Records with an inconclusive call do not appear. Calls of active or inactive are those of the source. The call rests on the fitted dose curve; in most records, active means well fitted cell-killing curve with a large enough effect in the repeat runs; inconclusive means weak or mixed curves, or effect the other way; inactive means flat fitted curve, though single readings scatter.

Test: cAMP Responsive Elements (CRE) small molecule antagonists, cell-based qHTS assay: qHTS cell viability counter screen (AID 2060913); further: nearly all actives have a fitted effect of over 40% in size
Settings: CRE-bla HEK293T viability, CellTiter-Glo luminescence, 5 h; series mostly up to 92.4 µM; viability change, negative = cytotoxic: at the top concentration
Excerpt: U.S. Tox21 Program National Center for Advancing Translational Sciences [NCATS] Division of Preclinical Innovation [DPI] U.S. Environmental Protection Agency [EPA] National Institutes of Environmental Health Sciences [NIEHS] National Toxicology Program [NTP] U.S. Food and Drug Administration [FDA] Tox21 Assay Overview: CREB (cyclic-AMP Responsive Element Binding Protein) is a cellular transcription factor. It binds to certain DNA sequences called cAMP Responsive Elements (CRE) and regulates the transcription of the genes. […] This cell line can be used to find agonists/antagonists of the cyclic AMP signaling pathway. The activation of the report gene under culture conditions can be detected by fluorescence intensity. This cell line has been used to screen the Tox21 10K compound library to identify agonists that induce oxidative stress. The cytotoxicity of the Tox21 compound library against the CRE-bla cell line was tested in parallel by measuring the cell viability using CellTiter-Glo assay (Promega, Madison, WI) in the same wells.
Tox21 Assay Protocol Summary: CRE-bla Hek 293T cells were suspended in assay medium (DMEM containing 10% dialyzed FBS, 0.1 mM NEAA, 1 mM sodium pyruvate and 25 mM HEPES) and dispensed at 2,000 cells/4 uL /well into 1536-well black wall/clear bottom plates using a Multidrop Combi (ThermoFisher Scientific, Waltham, MA) dispenser. After the assay plates were incubated at 37 C/5% CO2 for 18 hrs, 23 nL of compounds dissolved in DMSO, positive controls or DMSO only was transferred to the assay plate by a pintool workstation (Kalypsys, San Diego, CA), followed by addition of 1 uL of 1.25uM NKH477 (0.25 uM as final concentration) in assay medium using a Flying Reagent Dispenser (Aurora Discovery, San Diego, CA). The plates were incubated at 37 C and 5% CO2 for 3 hrs. Then 1 uL of LiveBLAzer B/G FRET substrate (Invitrogen, Carlsbad, CA) was added to each well using Bioraptr Flying Reagent Dispenser (FRD, Aurora Discovery, San Diego, CA). The plates were incubated at room temperature for 2 h, then fluorescence intensities were measured using an Envision plate reader (PerkinElmer, Shelton, CT) at Excitation 405nm, Emission 460nm and 530nm. The % activity was determined from the ratio of 460nm/530nm. For cell viability readout that measures cytotoxicity, 4 uL /well of CellTiter-Glo reagent was added into the assay plates using Bioraptr FRD. After 30 min incubation at room temperature, the luminescence intensity in the assay plates was measured using a ViewLux (PerkinElmer, Shelton, CT) plate reader.
On the % scale 0 is the no-effect control and ±100 the full control effect; potency means the concentration at half of the fitted maximal effect.

Row | Compound | viability change, negative = cytotoxic | Potency
1 | COP(=S)(Cl)OC | inactive: -1.28% | 
2 | CCOC(=O)Cl | inactive: 10.8% | 
3 | CCCCO[P+](=O)OCCCC |  | inactive
4 | CN(C(=O)Cc1ccccc1)[C@H]1CC[C@@]2(CCCO2)C[C@@H]1N1CCCC1 | inactive: 1.92% [at 42.5 µM] | 
5 | ClP(Cl)c1ccccc1 | inactive: -8.29% | 
6 | O=P(Cl)(Cl)c1ccccc1 | inactive: 1.02% | 
7 | CN(N=O)C(=N)N[N+](=O)[O-] | inactive: 4.55% | 
8 | Cc1cc([N+](=O)[O-])c(O)c([N+](=O)[O-])c1 | inactive: -25.8% | 
9 | CC(C)CCCCCCCOP(OCCCCCCCC(C)C)Oc1ccccc1 | inactive: 2.87% | 
10 | O=[N+]([O-])c1ccc([N+](=O)[O-])cc1 | inactive: -3.51% | 
11 | CCCCC(CC)CO[P+](=O)OCC(CC)CCCC (stereo unspecified) | inactive: 11.1% | 
12 | COC(=O)Cl | inactive: -4.36% | 
13 | CCC(C)(OOC(C)(C)C)OOC(C)(C)C | inactive: 7.96% [at 18.9 µM] | 
14 | CN(C(=O)Cc1ccc(Cl)c(Cl)c1)[C@H]1CC[C@@]2(CCCO2)C[C@@H]1N1CCCC1 | inactive: -2.52% [at 42.5 µM] | 
15 | O=[p+]1oc2ccccc2c2ccccc21 (stereo unspecified) | inactive: 4.68% | 
16 | O=[P+](Oc1ccccc1)Oc1ccccc1 | inactive: 7.49% | 
17 | O=C(Cl)Oc1ccccc1 | inactive: 24.9% | 
18 | CN(C(=O)Cc1cccc2occc12)[C@H]1CC[C@@]2(CCCO2)C[C@@H]1N1CCCC1 | inactive: 13.4% | 
19 | O=[As]c1ccccc1 (stereo unspecified) |  | active: 2.73 µM
20 | O=[N+]([O-])c1ccc(S(=O)(=O)O)c([N+](=O)[O-])c1 | inactive: -21.5% | 
21 | O=C(Cl)OCCOC(=O)Cl | inactive: 21.7% | 
22 | CCNC(C)Cc1ccc2c(c1)OCO2 (stereo unspecified) | inactive: -0.813% | 
23 | NC(=O)Nc1ccc([As](=O)(O)O)cc1 |  | inactive
24 | CCOP(=S)(CC)Sc1ccccc1 (stereo unspecified) | inactive: -8.24% | 
25 | CCCCOP(OCCCC)OCCCC | inactive: -4.76% | 
26 | O=P(Cl)(Oc1ccccc1)Oc1ccccc1 | inactive: 0.688% | 
